{
  "source": "patent US20130005759A1",
  "about": "“SMALL MOLECULE MODIFIERS OF MICRORNA MIR-122” (North Carolina State University, priority 2010, published 2013)",
  "origin": "cited, not measured here",
  "molecules": {"B1": {"name": "interferon β: currently the most common HCV therapeutic (together with interferon α) (protein, UniProt P01574 22-187, looked up)", "Interferon beta": "MSYNLLGFLQRSSNFQCQKLLWQLNGRLEYCLKDRMNFDIPEEIKQLQQFQKEDAALTIYEMLQNIFAIFRQDSSSTGWNETIVENLLANVYHQINHLKTVLEEKLEKEDFTRGKLMSSLHLKRYYGRILHYLKAKEYSHCAWTIVRVEILRNFYFINRLTGYLRN"}},
  "test_system": "miR-122",
  "details": "literature reference 15; cited from earlier work",
  "data": [
    {"molecule": "B1", "values": [
      {"measurement": "down-regulation of miR-122", "value": "~80", "unit": "%"}
    ]}
  ]
}
